# Literature values, collected in patent US20160058751A1, “COMPOSITION AND METHOD FOR TREATING CANCER” (CELLWORKS GROUP, INC., priority 2013, published 2016).
# Sequences of proteins named here, by UniProt entry; tags and fusion partners are left off. Residues count along the entry.
# UniProt P35918, 20-1345: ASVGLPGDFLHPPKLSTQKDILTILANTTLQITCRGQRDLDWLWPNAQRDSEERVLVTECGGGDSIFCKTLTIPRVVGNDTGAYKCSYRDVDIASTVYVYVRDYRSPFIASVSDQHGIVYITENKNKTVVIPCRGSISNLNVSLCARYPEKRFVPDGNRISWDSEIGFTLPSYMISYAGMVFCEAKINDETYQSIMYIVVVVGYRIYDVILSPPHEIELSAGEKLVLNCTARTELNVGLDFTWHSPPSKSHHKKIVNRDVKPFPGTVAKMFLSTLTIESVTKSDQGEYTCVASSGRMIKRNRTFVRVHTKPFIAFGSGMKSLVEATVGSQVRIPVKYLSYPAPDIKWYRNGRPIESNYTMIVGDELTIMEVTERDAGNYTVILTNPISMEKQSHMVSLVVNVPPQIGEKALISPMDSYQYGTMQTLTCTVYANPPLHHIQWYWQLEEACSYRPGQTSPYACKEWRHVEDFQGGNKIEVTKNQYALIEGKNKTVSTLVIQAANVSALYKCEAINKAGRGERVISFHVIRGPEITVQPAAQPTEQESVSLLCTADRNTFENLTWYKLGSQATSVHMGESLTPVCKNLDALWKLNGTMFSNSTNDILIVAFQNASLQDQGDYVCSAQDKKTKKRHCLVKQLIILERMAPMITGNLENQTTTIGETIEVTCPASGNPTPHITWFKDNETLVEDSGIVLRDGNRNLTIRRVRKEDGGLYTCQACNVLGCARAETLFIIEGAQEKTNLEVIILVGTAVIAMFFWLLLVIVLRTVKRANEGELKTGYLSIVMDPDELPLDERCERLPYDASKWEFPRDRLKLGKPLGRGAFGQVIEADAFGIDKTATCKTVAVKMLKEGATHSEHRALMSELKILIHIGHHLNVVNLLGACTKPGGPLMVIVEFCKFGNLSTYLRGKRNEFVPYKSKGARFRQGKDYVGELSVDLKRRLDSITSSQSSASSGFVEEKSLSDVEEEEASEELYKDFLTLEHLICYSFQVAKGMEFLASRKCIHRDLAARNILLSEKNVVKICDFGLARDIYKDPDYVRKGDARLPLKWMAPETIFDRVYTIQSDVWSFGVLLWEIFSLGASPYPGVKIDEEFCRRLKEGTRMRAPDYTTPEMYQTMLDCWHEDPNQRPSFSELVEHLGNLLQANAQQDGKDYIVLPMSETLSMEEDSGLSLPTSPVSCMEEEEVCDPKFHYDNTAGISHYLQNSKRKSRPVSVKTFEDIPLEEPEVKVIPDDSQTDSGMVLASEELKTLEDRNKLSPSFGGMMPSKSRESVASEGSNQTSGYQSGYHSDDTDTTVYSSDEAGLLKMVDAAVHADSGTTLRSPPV
# Target: mVEGFR-2 (flk-1) (Mus musculus, UniProt P35918)
# Settings: biochemical assay; cited from earlier work
smiles,measurement,value
"CNC(=O)c1cc(Oc2ccc(NC(=O)Nc3ccc(Cl)c(C(F)(F)F)c3)cc2)ccn1 [Sorafenib, 4-[4-[[4-chloro-3-(trifluoromethyl)phenyl]carbamoylamino]phenoxy]-N-methylpyridine-2-carboxamide]",IC50,15 nM
